For one assay, the target named is T1, KDR (Homo sapiens, UniProt P35968).
T1 construct: To determine whether these receptor isoforms represent full-length VEGFR-2; expressed in transfected cells; host or cells: porcine aortic endothelial (PAE) cells
Nature of the assay: [125I]VEGF binding to the surface of PAE-KDR cells. On the procedure:
Radioligand binding is expressed as percent binding and is the mean±s.e.m. of triplicate samples. […] All values are expressed as mean±s.e.m. of triplicate samples. […] Binding is expressed as mean±s.e.m.
Data were analyzed by Scatchard plot analyses.

By UniProt entry, the sequences of proteins in these tests, tags left out. Residues count along the entry.
UniProt P35968, 20-1356: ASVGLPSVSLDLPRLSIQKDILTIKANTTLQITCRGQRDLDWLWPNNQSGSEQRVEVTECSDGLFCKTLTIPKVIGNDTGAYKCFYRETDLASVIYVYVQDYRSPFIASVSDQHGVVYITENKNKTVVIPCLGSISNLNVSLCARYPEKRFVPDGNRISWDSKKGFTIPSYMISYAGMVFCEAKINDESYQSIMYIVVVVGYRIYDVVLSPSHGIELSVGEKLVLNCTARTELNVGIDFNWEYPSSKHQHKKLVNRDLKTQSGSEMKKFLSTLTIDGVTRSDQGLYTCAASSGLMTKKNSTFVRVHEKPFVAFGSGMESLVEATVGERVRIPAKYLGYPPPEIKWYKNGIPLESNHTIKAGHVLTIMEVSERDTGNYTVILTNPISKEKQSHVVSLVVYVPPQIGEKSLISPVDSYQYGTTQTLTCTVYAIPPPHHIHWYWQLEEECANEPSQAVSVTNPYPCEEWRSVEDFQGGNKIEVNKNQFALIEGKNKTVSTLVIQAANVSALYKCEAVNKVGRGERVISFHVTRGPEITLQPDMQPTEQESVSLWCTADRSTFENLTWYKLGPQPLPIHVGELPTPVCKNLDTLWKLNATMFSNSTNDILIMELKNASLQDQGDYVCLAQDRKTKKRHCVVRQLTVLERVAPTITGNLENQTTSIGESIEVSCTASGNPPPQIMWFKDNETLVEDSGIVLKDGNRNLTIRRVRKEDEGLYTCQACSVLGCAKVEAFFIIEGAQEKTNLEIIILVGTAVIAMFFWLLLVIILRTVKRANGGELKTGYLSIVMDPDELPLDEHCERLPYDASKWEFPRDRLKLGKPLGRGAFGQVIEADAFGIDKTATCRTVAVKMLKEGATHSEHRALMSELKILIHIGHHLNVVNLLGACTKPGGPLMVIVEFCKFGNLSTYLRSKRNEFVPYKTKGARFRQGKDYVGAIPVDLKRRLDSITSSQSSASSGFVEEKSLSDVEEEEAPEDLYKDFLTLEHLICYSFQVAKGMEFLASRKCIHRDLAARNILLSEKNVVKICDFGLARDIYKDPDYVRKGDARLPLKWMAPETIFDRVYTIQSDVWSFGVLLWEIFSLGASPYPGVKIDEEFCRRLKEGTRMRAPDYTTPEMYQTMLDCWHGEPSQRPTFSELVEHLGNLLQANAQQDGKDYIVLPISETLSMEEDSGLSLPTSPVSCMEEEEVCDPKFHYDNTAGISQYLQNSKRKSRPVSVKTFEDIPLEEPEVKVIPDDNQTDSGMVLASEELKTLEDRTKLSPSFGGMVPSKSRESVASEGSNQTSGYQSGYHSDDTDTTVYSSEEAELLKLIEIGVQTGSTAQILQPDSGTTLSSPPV

A further assay concerns the target VEGFR2 (KDR/Flk-1) (Homo sapiens, UniProt P35968). As to conditions: read-out: Kd of VEGF binding to VEGFR2; cited from earlier work.

Broadly, the Kd is the concentration at which binding is half-saturated.

Turning to VEGF [reference compound], on KDR, the “IC50 for competition with labeled VEGF for binding to PAE-KDR cells” value was 8.5 to 15 ng/mL. On VEGFR2 (KDR/Flk-1), the Kd is 0.4 to 0.8 nM.

The record behind these values is patent US8431396B2, “Anti-angiogenic peptides” (The Cleveland Clinic Foundation, priority 2003, dated 2013).
